We go through two compounds from BindingDB's records for patent US9540388 (Janssen Pharmaceutica NV, 2017).

Protein sequences, listed by entry. Tags and fused reporters are not part of them. Lines headed by an entry give the natural chain unless they say otherwise; changes in a name come on top.
UniProt Q99572: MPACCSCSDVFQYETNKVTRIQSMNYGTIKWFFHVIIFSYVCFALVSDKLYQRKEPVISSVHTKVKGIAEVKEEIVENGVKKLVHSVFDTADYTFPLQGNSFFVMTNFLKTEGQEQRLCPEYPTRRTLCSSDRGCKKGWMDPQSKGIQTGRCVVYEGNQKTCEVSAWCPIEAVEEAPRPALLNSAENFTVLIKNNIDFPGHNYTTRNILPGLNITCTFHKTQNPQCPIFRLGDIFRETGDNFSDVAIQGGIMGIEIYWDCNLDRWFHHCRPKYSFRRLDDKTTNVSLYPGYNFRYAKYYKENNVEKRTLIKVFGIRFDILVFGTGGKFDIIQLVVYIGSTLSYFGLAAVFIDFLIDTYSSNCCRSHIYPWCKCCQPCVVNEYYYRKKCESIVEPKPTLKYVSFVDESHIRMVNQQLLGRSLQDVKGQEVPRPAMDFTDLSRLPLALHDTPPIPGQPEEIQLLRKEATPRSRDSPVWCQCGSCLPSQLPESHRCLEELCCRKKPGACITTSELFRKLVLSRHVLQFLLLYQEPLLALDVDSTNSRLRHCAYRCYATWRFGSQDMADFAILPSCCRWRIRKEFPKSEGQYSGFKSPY

The structures appear in SMILES notation.

For orientation: IC50 means the concentration at which inhibition is half-maximal. In general, Ki refers to a measure of affinity in units of concentration, obtained from inhibition or displacement. Lower therefore signals higher affinity.

Assay [1] has as its target P2X purinoceptor 7 (Homo sapiens, UniProt Q99572). The assay is described as follows: Radioligand Binding Assay. On the procedure: (§1) human or rat P2X7-1321N1 cells were collected and frozen @−80° C. On the day of the experiment, cell membrane preparations were made according to standard published methods. The total assay volume was 100 μl:10 μl compound (10×)+(b) 40 μl tracer (2.5×)+50 μl membrane (2×). The tracer used for the assay was tritiated A-804598. The compound can be prepared as described in the literature. […] The assay was terminated by filtration (GF/B filters pre-soaked with 0.3% PEI) and washed with washing buffer (Tris-HCl 50 mM). The IC50 generated in the binding assay was corrected for tracer concentration and affinity of the tracer to derive at the affinity (Ki) of the test compounds.

For assay [2], the target named is T1, P2X purinoceptor 7 (Rattus norvegicus, UniProt Q64663).
T1 sequence (Q64663 whole entry): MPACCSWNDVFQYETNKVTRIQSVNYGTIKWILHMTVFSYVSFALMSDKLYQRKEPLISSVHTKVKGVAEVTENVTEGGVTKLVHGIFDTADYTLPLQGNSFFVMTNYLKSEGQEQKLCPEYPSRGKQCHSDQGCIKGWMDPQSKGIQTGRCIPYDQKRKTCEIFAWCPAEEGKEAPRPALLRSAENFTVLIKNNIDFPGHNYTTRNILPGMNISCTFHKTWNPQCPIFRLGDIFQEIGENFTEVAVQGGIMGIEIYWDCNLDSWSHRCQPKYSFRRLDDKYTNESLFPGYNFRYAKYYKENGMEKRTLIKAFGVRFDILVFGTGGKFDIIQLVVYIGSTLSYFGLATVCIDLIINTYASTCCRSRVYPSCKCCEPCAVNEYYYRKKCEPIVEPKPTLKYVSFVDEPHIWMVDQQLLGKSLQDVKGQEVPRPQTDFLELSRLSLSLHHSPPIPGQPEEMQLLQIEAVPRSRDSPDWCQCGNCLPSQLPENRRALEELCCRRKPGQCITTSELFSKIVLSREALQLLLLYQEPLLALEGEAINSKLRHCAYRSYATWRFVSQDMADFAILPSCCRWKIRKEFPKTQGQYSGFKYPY
The assay is described as follows: Radioligand Binding Assay. On the procedure: as §1

For assay [3], the target named is T1, P2X purinoceptor 7. The experiment in a line: Ca2+ Flux Assay. The settings on record: pH 7.4. On the procedure:
1321N1 cells expressing the recombinant human or rat P2X7 channel was cultured in HyQ DME/(HyClone/Dulbecco's Modified Eagle Medium) high glucose supplemented with 10% Fetal Bovine Serum (FBS) and appropriate selection marker. Cells were seeded at a density of 25000 cells/well (96-well clear bottom black walled plates) in 100 μl volume/well. On the day of the experiment, cell plates were washed with assay buffer, containing (in mM): 130 NaCl, 2 KCl, 1 CaCl2, 1 MgCl2, 10 HEPES, 5 glucose; pH 7.40 and 300 mOs. After the wash, cells were loaded with the Calcium-4 dye (Molecular Device) and incubated in the dark for 60 minutes. Test compounds were prepared at 250× the test concentration in neat DMSO. Intermediate 96-well compound plates were prepared by transferring 1.2 μL of the compound into 300 μL of assay buffer. A further 3× dilution occurred when transferring 50 μL/well of the compound plate to 100 μL/well in the cell plate. Cells were incubated with test compounds and dye for 30 minutes. Calcium dye fluorescence was monitored in FLIPR as the cells were challenged by adding 50 μL/well of BzATP (final concentration is 250 μM BzATP (human and rat)).
In general terms: Calcium flux is commonly read through the fluorescence of an indicator in the cells.

Turning to `O=C(c1cccc(C(F)(F)F)c1Cl)N1[C@@H]2CCC[C@H]1c1nnc(-c3ncccn3)n1C2` (single isomer, unassigned) [US9540388, 3], the IC50 in assay [1] and in assay [2] was > 10 µM in each case.

`COc1ccnc(-c2nnc3n2C[C@H]2CCC[C@@H]3N2C(=O)c2cccc(C(F)(F)F)c2Cl)c1` (single isomer, unassigned) [US9540388, 27] displayed a Ki in assay [3] of 0.004 µM.
